Measurements taken from patent publication US7381537B2, “Use of inhibitors of glutaminyl cyclases for treatment and prevention of disease” (Probiodrug AG, priority 2003, dated 2008).

By UniProt entry, the sequences of proteins in these tests, tags left out. Residues count along the entry.
UniProt O81226, 1-288: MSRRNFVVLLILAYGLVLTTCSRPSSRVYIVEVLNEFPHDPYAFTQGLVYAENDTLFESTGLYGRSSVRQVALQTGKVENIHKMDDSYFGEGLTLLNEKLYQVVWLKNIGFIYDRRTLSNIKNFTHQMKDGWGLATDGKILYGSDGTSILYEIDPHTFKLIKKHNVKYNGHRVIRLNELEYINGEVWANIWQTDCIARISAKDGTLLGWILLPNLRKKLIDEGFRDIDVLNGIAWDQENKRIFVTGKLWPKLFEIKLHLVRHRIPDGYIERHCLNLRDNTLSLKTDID

Legend:
Papaya QC [1] = target: T1, Papaya QC (Carica papaya, UniProt O81226); assay: Continuous spectrophotometric assay of QC substrate conversion (glutamate dehydrogenase coupled), papaya QC; conditions: for Ki* (for substrate inhibition) / Ki: n.i. = no inhibition; for Ki: substrate inhibition
Papaya QC [2] = target: T1, Papaya QC; assay: Fluorometric assay with pyroglutamyl aminopeptidase as auxiliary enzyme, papaya QC (incl. pH-dependence of Gln-βNA and Glu-βNA cyclization); conditions: for pKa-value from pH-dependence of conversion, first dissociating group / pKa-value from pH-dependence of conversion, second dissociating group: first-order rate-law conditions, 30° C.
Papaya QC [3] = target: T1, Papaya QC; assay: Qualitative substrate conversion by MALDI-TOF mass spectrometry, papaya QC
[4] = Table 1, physiological substrates
[5] = Table 6, influence of substrate length
[6] = 0.05 M Tricine-NaOH, pH 8.0, 0.5 M KCl

With `NC(=O)CC[C@H](NC(=O)[C@@H](N)CCC(N)=O)C(=O)O` [H-Gln-Gln-OH] the kcat/KM (Papaya QC [1]; Table 5) was 982000 ± 51000 M⁻¹ s⁻¹ and the “Ki* (for substrate inhibition)” value (Papaya QC [1]; Table 5) was “n.i”.

For `NC(=O)CC[C@H](N)C(=O)N[C@@H](CCC(=O)O)C(=O)N1CCC[C@H]1C(N)=O` [[Gln^1]-FPP], the Km (Papaya QC [1]; [4]) was 232 µM and the kcat/KM (Papaya QC [1]; [4]) was 140000 ± 4000 M⁻¹ s⁻¹.

`CSCC[C@H](NC(=O)[C@H](Cc1c[nH]c2ccccc12)NC(=O)CNC(=O)[C@H](Cc1ccc(O)cc1)NC(=O)[C@H](C)NC(=O)[C@H](CCC(=O)O)NC(=O)[C@H](CCC(=O)O)NC(=O)[C@H](CCC(=O)O)NC(=O)[C@H](CCC(=O)O)NC(=O)[C@H](CCC(=O)O)NC(=O)[C@H](CC(C)C)NC(=O)[C@H](Cc1c[nH]c2ccccc12)NC(=O)[C@@H]1CCCN1C(=O)CNC(=O)[C@@H](N)CCC(N)=O)C(=O)N[C@@H](CC(=O)O)C(=O)N[C@@H](Cc1ccccc1)C(N)=O` was tested, and the Km (Papaya QC [1]; [4]) was 34 µM.

H-Glu-βNA showed a pKa-value from pH-dependence of conversion, first dissociating group (Papaya QC [2]) of 4.6 and a pKa-value from pH-dependence of conversion, second dissociating group (Papaya QC [2]) of 7.55.

In the case of `C[C@H](NC(=O)[C@@H](N)CCC(N)=O)C(N)=O` [H-Gln-Ala-NH2], the kcat/KM (Papaya QC [1]; [5]) is reported as 296000 ± 15000 M⁻¹ s⁻¹.

`NC(=O)CC[C@H](N)C(=O)N[C@@H](Cc1ccc(O)cc1)C(=O)O` [H-Gln-Tyr-OH] was tested, and the “Ki* (for substrate inhibition)” value (Papaya QC [1]; Table 5) was “n.i”.

For `C[C@H](NC(=O)[C@@H](N)CCC(N)=O)C(=O)O` [H-Gln-Ala-OH], the kcat/KM (Papaya QC [1]; [6]) was 480000 ± 12000 M⁻¹ s⁻¹, the Ki (Papaya QC [1]; [6]) was “n.i” and the kcat/KM (Papaya QC [1]; 0.05 M Tricine-NaOH, pH 8.08) was 509000 ± 19000 M⁻¹ s⁻¹. The Ki (Papaya QC [1]; 0.05 M Tricine-NaOH, pH 8.08) was “n.i”, the kcat/KM (Papaya QC [1]; Table 5) was 442000 ± 16000 M⁻¹ s⁻¹ and the “Ki* (for substrate inhibition)” value (Papaya QC [1]; Table 5) was “n.i”.

`CC(C)[C@H](NC(=O)[C@@H](N)CCC(N)=O)C(=O)O` [H-Gln-Val-OH] was tested, and the “Ki* (for substrate inhibition)” value (Papaya QC [1]; Table 5) was “n.i”.

In the case of H-Gln(NMe)-Phe-Lys-Ala-Glu-NH2, the “substrate conversion (cyclization) by papaya QC” value (Papaya QC [3]) is reported as “converted into a pyroglutamyl residue”.

In the case of `CC(C)(C)OC(=O)C(N)CCC(N)=O` (centres unmarked), the kcat/KM (Papaya QC [1]; Table 5) is reported as 222000 ± 6000 M⁻¹ s⁻¹ and the “Ki* (for substrate inhibition)” value (Papaya QC [1]; Table 5) is reported as “n.i”.

`C[C@H](NC(=O)[C@H](C)NC(=O)[C@H](CO)NC(=O)[C@H](C)NC(=O)[C@H](C)NC(=O)[C@@H](N)CCC(N)=O)C(N)=O` showed a kcat/KM (Papaya QC [1]; [5]) of 363000 ± 5000 M⁻¹ s⁻¹.

With H-Gln-AMC the kcat/KM (Papaya QC [1]; Table 5) was 938000 ± 13000 M⁻¹ s⁻¹.

With `NC(=O)CCC(N)C(N)=O` (centres unmarked) the Ki (Papaya QC [1]; [6]) was “n.i”, the Ki (Papaya QC [1]; 0.05 M Tricine-NaOH, pH 8.08) was “n.i” and the “Ki* (for substrate inhibition)” value (Papaya QC [1]; Table 5) was “n.i”.

In the case of `NC(=O)CC[C@H](N)C(=O)N[C@@H](CCC(=O)O)C(=O)O` [H-Gln-Glu-OH], the kcat/KM (Papaya QC [1]; [6]) is reported as 472000 ± 12000 M⁻¹ s⁻¹, the Ki (Papaya QC [1]; [6]) is reported as “n.i” and the kcat/KM (Papaya QC [1]; 0.05 M Tricine-NaOH, pH 8.08) is reported as 459000 ± 18000 M⁻¹ s⁻¹. The Ki (Papaya QC [1]; 0.05 M Tricine-NaOH, pH 8.08) was “n.i”, the kcat/KM (Papaya QC [1]; Table 5) was 475000 ± 17000 M⁻¹ s⁻¹ and the “Ki* (for substrate inhibition)” value (Papaya QC [1]; Table 5) was “n.i”.

Work on `C[C@H](NC(=O)[C@H](C)NC(=O)[C@H](C)NC(=O)[C@H](C)NC(=O)[C@@H](N)CCC(N)=O)C(N)=O` yielded a kcat/KM (Papaya QC [1]; [5]) of 379000 ± 10000 M⁻¹ s⁻¹.

With `CC(C)C[C@H](NC(=O)[C@H](CCCNC(=N)N)NC(=O)[C@H](CCCCN)NC(=O)[C@H](Cc1ccccc1)NC(=O)C[C@@H](N)CCC(N)=O)C(=O)N[C@@H](C)C(N)=O` the Km (Papaya QC [1]; text b245) was 3100 µM and the kcat/KM value (Papaya QC [1]; text b245) was 1400 ± 100 M⁻¹ s⁻¹.

With `CC(C)C[C@H](NC(=O)[C@H](CCCNC(=N)N)NC(=O)[C@H](CCCCNC(=O)[C@@H](N)CCC(N)=O)NC(=O)[C@@H](N)CCC(N)=O)C(=O)N[C@@H](C)C(N)=O` [H-Gln-Lys(Gln)-Arg-Leu-Ala-NH2] the “substrate conversion (cyclization) by papaya QC” value (Papaya QC [3]) was “converted”.

In the case of H-Gln-cyclo(Nε-Lys-Arg-Pro-Ala-Gly-Phe), the kcat/KM-value (Papaya QC [1]; text b244) is reported as 6200 ± 150 M⁻¹ s⁻¹.

In the case of H-Gln-βNA, the kcat/KM (Papaya QC [1]; [6]) is reported as 1.475e+06 ± 70000 M⁻¹ s⁻¹, the kcat/KM (Papaya QC [1]; 0.05 M Tricine-NaOH, pH 8.08) is reported as 1.356e+06 ± 50000 M⁻¹ s⁻¹ and the kcat/KM (Papaya QC [1]; Table 5) is reported as 1.353e+06 ± 70000 M⁻¹ s⁻¹. It also gave a pKa-value from pH-dependence of conversion, first dissociating group (Papaya QC [2]) of 6.91 and a pKa-value from pH-dependence of conversion, second dissociating group (Papaya QC [2]) of 9.5.

In the case of `COC(=O)CC[C@H](N)C(=O)N[C@@H](Cc1ccccc1)C(=O)N[C@@H](CCCCN)C(=O)N[C@@H](CCCNC(=N)N)C(=O)N[C@@H](CC(C)C)C(=O)N[C@@H](C)C(N)=O` [H-Glu(OMe)-Phe-Lys-Arg-Leu-Ala-NH2], the “inhibition of papaya QC by the peptide” value (Papaya QC [2]; H-Gln-AMC as substrate) is reported as “not inhibited”.

`C[C@H](NC(=O)[C@H](C)NC(=O)[C@@H](N)CCC(N)=O)C(N)=O` [H-Gln-Ala-Ala-NH2] gave a kcat/KM (Papaya QC [1]; [5]) of 507000 ± 12000 M⁻¹ s⁻¹.

Work on H-Gln-OH yielded a kcat/KM (Papaya QC [1]; Table 5) of 230 ± 100 M⁻¹ s⁻¹.

For `NC(=O)CC[C@H](N)C(=O)NCC(=O)O`, the “Ki* (for substrate inhibition)” value (Papaya QC [1]; Table 5) was “n.i”.
